Experimental data as given in ChEMBL document CHEMBL1159120, “2,4-Diamino-5-methyl-6-substituted arylthio-furo[2,3-d]pyrimidines as novel classical and nonclassical antifolates as potential dual thymidylate synthase and dihydrofolate reductase inhibitors” (Bioorg Med Chem, 2010).
pIC50: −log10 of the molar value.

How the values were obtained:
Dihydrofolate reductase [1] = target: T1, Dihydrofolate reductase (Mycobacterium avium, UniProt O30463)
T1 sequence (O30463 whole entry): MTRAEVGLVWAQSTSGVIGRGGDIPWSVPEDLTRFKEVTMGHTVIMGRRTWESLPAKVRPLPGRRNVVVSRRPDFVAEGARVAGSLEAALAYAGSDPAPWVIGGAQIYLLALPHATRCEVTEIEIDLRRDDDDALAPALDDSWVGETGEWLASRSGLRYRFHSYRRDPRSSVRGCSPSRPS

[2] = target: T2, Bifunctional dihydrofolate reductase-thymidylate synthase (Toxoplasma gondii, UniProt Q07422)
T2 sequence (Q07422 whole entry): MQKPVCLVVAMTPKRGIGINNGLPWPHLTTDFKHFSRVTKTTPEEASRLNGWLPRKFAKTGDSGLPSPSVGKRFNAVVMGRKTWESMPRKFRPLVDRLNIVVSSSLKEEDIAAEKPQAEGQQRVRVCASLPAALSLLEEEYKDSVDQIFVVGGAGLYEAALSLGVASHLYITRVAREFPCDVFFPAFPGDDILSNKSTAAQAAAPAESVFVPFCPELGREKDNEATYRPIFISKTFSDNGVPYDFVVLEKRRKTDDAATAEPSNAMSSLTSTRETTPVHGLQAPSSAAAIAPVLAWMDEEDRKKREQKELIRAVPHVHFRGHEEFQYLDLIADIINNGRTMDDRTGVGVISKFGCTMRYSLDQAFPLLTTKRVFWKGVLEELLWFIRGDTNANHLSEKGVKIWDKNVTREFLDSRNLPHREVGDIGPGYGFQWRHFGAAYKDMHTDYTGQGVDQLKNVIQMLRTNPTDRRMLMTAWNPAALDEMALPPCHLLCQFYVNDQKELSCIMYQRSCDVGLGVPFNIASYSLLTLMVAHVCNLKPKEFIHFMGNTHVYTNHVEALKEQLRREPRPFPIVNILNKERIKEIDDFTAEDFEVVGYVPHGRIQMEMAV

Dihydrofolate reductase [3] = target: T3, Dihydrofolate reductase (Rattus norvegicus, UniProt Q920D2)
T3 sequence (Q920D2 whole entry): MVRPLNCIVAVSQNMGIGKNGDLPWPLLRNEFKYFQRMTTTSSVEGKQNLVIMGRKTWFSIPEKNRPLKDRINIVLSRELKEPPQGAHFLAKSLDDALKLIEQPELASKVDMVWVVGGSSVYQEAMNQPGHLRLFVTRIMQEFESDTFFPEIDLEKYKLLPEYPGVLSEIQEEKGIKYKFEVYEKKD

**Q.** How did the pIC50 (Dihydrofolate reductase [1]) turn out when `Cc1c(Sc2c(Cl)cccc2Cl)oc2nc(N)nc(N)c12` was run?
**A.** 4.25

**Q.** What about the pIC50 [2] of the same molecule?
**A.** 4.59

**Q.** `COc1ccc(Sc2oc3nc(N)nc(N)c3c2C)cc1` was tested. Which pIC50 [2] did it give?
**A.** 4.16

**Q.** With `COc1ccc(Sc2oc3nc(N)nc(N)c3c2C)cc1OC` as the molecule, how does the pIC50 [2] read?
**A.** 4.29

**Q.** How did the pIC50 [2] turn out when `Cc1c(Sc2c(F)c(F)c(C(F)(F)F)c(F)c2F)oc2nc(N)nc(N)c12` was run?
**A.** 4.09

**Q.** What does the source list for `Cc1cccc(C(C)C)c1Sc1oc2nc(N)nc(N)c2c1C`?
**A.** pIC50 (Dihydrofolate reductase [1]): 4.63; pIC50 [2]: 4.79; pIC50 (Dihydrofolate reductase [3]): 4.61
